Measured affinities in a library of Ab-14 light chain variants

The measurements come from Engelhart et al. 2022 (doi:10.1038/s41597-022-01779-4) through the FLAb antibody collection.

Binding partner: SARS-CoV-2 spike HR2 peptide, sequence PDVDLGDISGINAS.

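Phage display of a naive human antibody library on the peptide gave the parent. The library (AAYL50) carries one to three amino acid substitutions per variant, with no insertions or deletions. The scFvs were displayed on barcoded MATa yeast, the peptide on MATalpha yeast. Pairs that bind mate more often; barcode pairs of the diploids are counted by sequencing. The ratio of observed to expected reads was calibrated, replicate by replicate, on BCL2-family standards whose Kd was known from biolayer interferometry. Mating was done three times.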

Ab-14 is the parent antibody, in scFv form: VH, then the linker GGGGSGGGGSGGGGS, then VL. The heavy chain is unchanged in all variants.
VH: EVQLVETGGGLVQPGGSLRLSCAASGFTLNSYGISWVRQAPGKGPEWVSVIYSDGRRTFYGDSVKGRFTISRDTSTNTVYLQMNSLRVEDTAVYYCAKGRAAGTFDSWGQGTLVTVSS
VL: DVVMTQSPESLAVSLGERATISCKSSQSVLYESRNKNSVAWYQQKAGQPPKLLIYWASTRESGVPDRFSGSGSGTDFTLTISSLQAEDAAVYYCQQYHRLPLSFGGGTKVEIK

Each variant is given by its three light chain CDRs, as the data file delimits them; those of the parent are KSSQSVLYESRNKNSVA, WASTRES, QQYHRLPLS.
Numbers give log10(Kd / nM), so 0 is 1 nM and 3 is 1 µM. Smaller is tighter.
Where no diploid with the target was found in that replicate, the entry reads "nd": below detection, most likely a poor binder, though not proof of it.

CDR-L1,CDR-L2,CDR-L3,log10 Kd (nM) by replicate,control signals
KSSQSVLYMSRNKNSVA,WASTRED,QVYHRLPLS,nd 2.87 nd,1/9 (2.75)
KSSQSVLYEQRGKNSVA,WASTRES,QQYHRLVLS,nd nd nd,2/9 (3.51)
KSSQSVLYQSRDKNSVA,WASTRES,QQYHCLPLS,nd nd 5.49,2/9 (3.71)
KSSQSVLYESRKKNSVA,WASTRDS,QQYHRLPLW,1.33 1.40 1.83,1/9 (3.01)
KESQKVLYEPRNKNSVA,WASTRES,QQYHRLPLS,0.89 1.44 1.06,0/9
KSSESVLYTSRNKNSVA,WASTRES,QQYHRLPLF,2.35 2.27 2.74,4/9 (4.32)
KSSQSVLYESDNKNSVA,PAATRES,QQYHRLPLS,nd nd nd,0/9
KISQSVLYESRNKNSVA,WASTRED,QQQHRLPLS,nd 5.70 5.65,7/9 (4.75)
KSSQSVLYESRNKNWVA,WASTRES,QLYHRLPIS,nd 4.01 4.34,1/9 (3.62)
KSSQSVLYESRLKNSVA,WASKRRS,QQYHRLPLS,3.62 nd nd,2/9 (3.48)
KSSQSVLKESRNKNSVA,WASTRES,QQYHPLPLS,1.26 1.36 1.44,1/9 (5.98)
KSSQSVLYESRIKNSVA,WASTRRS,QQRHRLPLS,nd nd nd,1/9 (2.80)
KSSQVVLYESRNINSVA,WASTRES,QQYHRLHLS,nd nd nd,0/9
KSSQSVLYESRNKNSWA,WASEREA,QQYHRLPLS,nd nd nd,0/9
CSSQSVLYESRNKNSVA,WASTRES,QQYHRLPHS,nd nd nd,2/9 (3.66)
KSSQSVLYESRNKNSVA,WASTRKS,QQYHRLPPS,nd 5.14 3.39,4/9 (4.44)
KSSQSVLYESGNKNMVA,WASTRES,QQPHRLPLS,1.78 1.90 1.86,1/9 (4.64)
KSSQSVRYESRNKNSVC,WASTRES,QQYCRLPLS,4.64 nd 6.01,3/9 (4.69)
KSSQSVWYENRNKNSVA,VASTRES,QQYHRLPLS,4.25 5.91 4.22,5/9 (4.42)
KSSQSVLYRSRNKNSVA,HASTRES,QQLHRLPLS,nd nd nd,0/9
KLSQSVLYESRNKNSVA,WASTRES,QAYGRLPLS,nd nd nd,0/9
KSSQSDLYESRNKNSVA,WASTRED,QQYHRLMLS,nd nd nd,0/9
KSSQSVLYESRNANSVA,SASTRES,QQYHRLPLS,2.29 nd nd,0/9
KSSQSVLYESRNKNSVA,WASTRET,QLYHRLPLS,0.66 0.86 0.83,3/9 (4.49)
KSSQSVLYESRNDNSVA,GASTRES,QQYHRLMLS,nd 4.07 nd,3/9 (4.12)
NSSQSVLYEARRKNSVA,WASTRES,QQYHRLPLS,3.03 2.84 3.61,2/9 (3.83)
KGSQSVLYENRNKNSVA,WGSTRES,QQYHRLPLS,0.48 0.97 0.76,0/9
KVSQSVLYESRNKNSVA,WASTRES,QQHHRLPLS,1.56 2.54 2.12,1/9 (3.20)
KSSQSVLYESINKNRVA,WASTRES,EQYHRLPLS,1.40 1.38 1.53,2/9 (3.85)
KSSQSVLYESDNKNQVA,WASTRES,QQYHFLPLS,3.60 3.35 nd,2/9 (4.29)
KSSASVLYESRNKNSVA,WASQRES,QQYHRLGLS,nd nd nd,4/9 (4.71)
KSSQNVLHESRNKNSVA,WASTRES,QQYHKLPLS,0.91 1.41 0.93,0/9
KSSMSVLYESRNKNIVA,WASTRES,QQYHLLPLS,nd nd nd,0/9
KSSQSVLYESRNKNHVA,MAATRES,QQYHRLPLS,1.07 1.21 1.13,2/9 (4.02)
KKSQSVLYESINKNSVA,PASTRES,QQYHRLPLS,nd nd nd,0/9
KSSQSVLYESRNKNSVA,WASTRFS,QQYHMLSLS,nd nd nd,1/9 (4.31)
KSSQSVLYESRNQNSVA,WVSTRES,QQYHRLPLS,nd nd nd,0/9
KVSQSVLYESQNKNSVA,WASTRES,QQYHRLPLI,0.16 0.47 0.18,0/9
KDSQSVLYESRYKNSVA,WASTRES,QQYHRYPLS,3.67 3.02 nd,0/9
KSSQSGQYESRHKNSVA,WASTRES,QQYHRLPLS,2.26 2.23 2.13,0/9
KSSQSVRYESRNKNSVA,WASTRES,QQYHRLPLS,0.10 0.55 0.35,1/9 (4.02)
KLSQSVLYESRNKNSVA,WASTRMS,QQYHRLPTS,-0.26 0.01 -0.14,0/9
KQSQSVLYESRNKNSVA,SASTNES,QQYHRLPLS,5.27 5.02 4.65,7/9 (4.42)
KSSQSVLYESRNKNSVA,WESTRES,QQYHRLPRS,nd nd nd,0/9
KSSQSVLYESRNKNSVA,EAGTRER,QQYHRLPLS,-0.05 0.24 0.18,0/9
ISSQSVLYESRNKNSVA,WASTRES,QQPHRLCLS,1.48 1.85 2.08,0/9

Top 3 of the variants detected in all replicates, tightest first:

CDR-L1,CDR-L2,CDR-L3,log10 Kd (nM) by replicate,control signals
KLSQSVLYESRNKNSVA,WASTRMS,QQYHRLPTS,-0.26 0.01 -0.14,0/9
KSSQSVLYESRNKNSVA,EAGTRER,QQYHRLPLS,-0.05 0.24 0.18,0/9
KVSQSVLYESQNKNSVA,WASTRES,QQYHRLPLI,0.16 0.47 0.18,0/9

Parent in this assay: reference entry 0.65, copy in this library 1.68.
Three control strains display no target. For library AAYL50, 18% of the pairings with them gave a signal, with a median of 4.19 and one signal in twenty below 2.99, so weak values seen in few replicates may be background. Also given: how often the same scFv was detected with the empty control strains, with their mean in brackets.